Key:
[1] = Thermodynamic solubility test; details: FaSSGF pH 1.6, FaSSIF pH 6.5, PBS pH 7.4; 4 mg/mL, room temperature overnight
Protocol: Fasted state simulated gastric fluid (FaSSGF, pH 1.6, 80µM sodium taurocholate, 20µM lecithin, 0.1g pepsin and 34.2mM sodium chloride per liter of solution), fasted state simulated intestinal fluid (FaSSIF, pH 6.5, 3mM sodium taurocholate, 0.2mM lecithin, 38.4 mM sodium hydroxide, 68.62mM sodium chloride and 19.12mM maleic acid per liter of solution) and phosphate buffered saline (PBS, pH 7.4, 100mM phosphate buffer, 11g disodium hydrogen carbonate and 3.5g sodium dihydrogen phosphate dihydrate per liter of solution) as test buffers were prepared.
The compound was accurately weighed and diluted with the above test buffers of different pH values to prepare a working solution at 4 mg/mL. The mixture was shaken at 1000 rpm for 1 h and equilibrated at room temperature overnight. Thereafter, the sample was centrifuged at 12000 rpm for 10 min to remove undissolved particles. The supernatant was transferred into a new centrifuge tube, and the compound concentration in the supernatant was determined by LC-MS/MS.

[2] = Solubility in dichloromethane/methanol system; details: dichloromethane/methanol system (volume ratio = 1:1)
Protocol: This solvent system was used to prepare an amorphous solid dispersion thin film, and the experimental procedures are as follows: • 1) Thin films of the amorphous solid dispersions were prepared in 96-well plates according to the mass ratios listed in Table 4-1. A total of ten identical 96-well plates were prepared, with each well containing 400 µg of API (generally 10 times the maximum saturated solubility in physiological solutions). • 2) A total of ten 96-well plates were prepared via rapid solvent evaporation method, among which 8 plates were used for physiologically relevant dissolution tests, 1 plate for physical stability evaluation, and 1 plate served as the excipient control. The detailed information is shown in Table 4-1. • 3) Eight 96-well plates loaded with amorphous solid dispersion thin films were subjected to physiologically relevant dissolution tests.

[3] = Mouse pharmacokinetic assay
Protocol: For a mouse pharmacokinetic assay, male ICR mice (20 g to 25 g) were selected and fasted overnight. Three mice were intragastrically administered with 10 mg/kg. The blood of the mice was collected before the administration and at 15 min, 30 min, 1 h, 2 h, 4 h, 8 h, and 24 h after the administration. The blood samples were 6,800 g and centrifuged at 4°C for 6 minutes, plasma was collected and stored at -80°C. Plasma at each time point was taken, and added with 3-5 times the amount of internal standard-containing acetonitrile to mix, and the mixture was vortex mixed for 1 minute, and centrifuged at 4°C for 10 minutes at 13,000 r/min. The supernatant was mixed with 3 times the amount of water, and an appropriate amount of the mixed solution was taken for LC-MS/MS analysis. The primary pharmacokinetic parameters were analyzed by WinNonlin 7.0 software non-atrioventricular model.

[4] = Rat pharmacokinetic assay; details: intragastrically administered with 10 mg/kg
Protocol: For a rat pharmacokinetic assay, male SD rats (180 g to 240 g) were selected and fasted overnight. Three rats were intragastrically administered with 10 mg/kg. The blood of the rats was collected before the administration and at 15 min, 30 min, 1 h, 2 h, 4 h, 8 h, and 24 h after the administration. The blood samples were centrifuged at 4°C for 6 minutes at 8,000 r/min, and plasma was collected and stored at -20°C. Plasma at each time point was taken, and added with 3 to 5 times the amount of an internal standard-containing acetonitrile solution to mix, and the mixture was vortex mixed for 1 minute, and centrifuged at 4°C for 10 minutes at 13,000 r/min. The supernatant was taken and mixed with 3 times the amount of water, and an appropriate amount of the mixed solution was taken for LC-MS/MS analysis. The primary pharmacokinetic parameters were analyzed by WinNonlin 7.0 software non-atrioventricular model.

[5] = Canine pharmacokinetic assay of compounds; details: for clearance: following intravenous administration; for Tmax: intragastric administration, 5 mg/kg; for systemic exposure: via both oral and intravenous routes
Protocol: For a canine pharmacokinetic assay, male Beagle dogs (8 kg to 10 kg) were selected and fasted overnight. Three Beagle dogs were intragastrically administered with 5 mg/kg. The blood of the dogs was collected before the administration and at 15 min, 30 min, 1 h, 2 h, 4 h, 8 h, and 24 h after the administration. Another 3 Beagle dogs were intravenously administered with 1 mg/kg. The blood of the dogs was collected before the administration and at 15 min, 30 min, 1 h, 2 h, 4 h, 8 h, and 24 h after the administration. The blood samples were centrifuged at 4°C for 6 minutes at 8,000 r/min, plasma was collected and stored at -20°C. Plasma at each time point was taken, added with 3 to 5 times the amount of internal standard-containing acetonitrile to mix, vortex mixed for 1 minute, and centrifuged at 4°C for 10 minutes at 13,000 r/min. The supernatant was taken and mixed with 3 times the amount of water, and an appropriate amount of the mixed solution was taken for LC-MS/MS analysis. The primary pharmacokinetic parameters were analyzed by WinNonlin 7.0 software non-atrioventricular model.

[6] = mouse, intragastric administration, 10 mg/kg
[7] = summary statement for rat, mouce and canine

solubility [1] | solubility [2] | Tmax [3, 6] | pharmacokinetic properties [3, 7] | half-lives [5] | clearance [5] | Tmax [5] | Vz ([5]; intravenous administration, 1 mg/kg) | systemic exposure [5] | Structure (SMILES) | pharmacokinetic properties [3, 6] | pharmacokinetic properties [4]
good solubility | high solubility | 30 min | comparable pharmacokinetic properties | – | – | – | – | – | Cc1cnc(-c2cc(O[C@@H](C)[C@@H](C)O)cc(C(=O)N[C@H](C)c3cnc(C(F)(F)F)nc3)c2F)s1 | good and comparable pharmacokinetic properties | good and comparable pharmacokinetic properties
good solubility | – | 60 min | comparable pharmacokinetic properties | long half-lives | low clearance | 1.00 h | 5.00 L/kg | high systemic exposure | Cc1cnc(-c2cc(O[C@H](C)[C@H](C)O)cc(C(=O)N[C@H](C)c3cnc(C(F)(F)F)nc3)c2F)s1 | good and comparable pharmacokinetic properties | good and comparable pharmacokinetic properties
good solubility | – | 60 min | comparable pharmacokinetic properties | long half-lives | low clearance | 1.00 h | – | high systemic exposure | Cc1cnc(-c2cc(O[C@H](C)[C@@H](C)O)cc(C(=O)N[C@H](C)c3cnc(C(F)(F)F)nc3)c2F)s1 | good and comparable pharmacokinetic properties | good and comparable pharmacokinetic properties
good solubility | – | 30 min | comparable pharmacokinetic properties | – | – | – | – | – | Cc1cnc(-c2cc(O[C@@H](C)[C@H](C)O)cc(C(=O)N[C@H](C)c3cnc(C(F)(F)F)nc3)c2F)s1 | good and comparable pharmacokinetic properties | good and comparable pharmacokinetic properties

— EP4834331A1, “SOLID DISPERSION OF P2X3 RECEPTOR ANTAGONIST AND PREPARATION PROCESS THEREOF” (dated 2026)
